# Reference: PMC12251226, “Comparison of in silico predictions of action potential duration in response to inhibition of IKr and ICaL with new human ex vivo recordings” (PLOS Computational Biology, 2025)
# The chains behind the UniProt entries cited, without tags or fusion partners. Where a name states a change or a piece, a line headed by the entry shows the natural chain unless it says otherwise.
# UniProt Q12809: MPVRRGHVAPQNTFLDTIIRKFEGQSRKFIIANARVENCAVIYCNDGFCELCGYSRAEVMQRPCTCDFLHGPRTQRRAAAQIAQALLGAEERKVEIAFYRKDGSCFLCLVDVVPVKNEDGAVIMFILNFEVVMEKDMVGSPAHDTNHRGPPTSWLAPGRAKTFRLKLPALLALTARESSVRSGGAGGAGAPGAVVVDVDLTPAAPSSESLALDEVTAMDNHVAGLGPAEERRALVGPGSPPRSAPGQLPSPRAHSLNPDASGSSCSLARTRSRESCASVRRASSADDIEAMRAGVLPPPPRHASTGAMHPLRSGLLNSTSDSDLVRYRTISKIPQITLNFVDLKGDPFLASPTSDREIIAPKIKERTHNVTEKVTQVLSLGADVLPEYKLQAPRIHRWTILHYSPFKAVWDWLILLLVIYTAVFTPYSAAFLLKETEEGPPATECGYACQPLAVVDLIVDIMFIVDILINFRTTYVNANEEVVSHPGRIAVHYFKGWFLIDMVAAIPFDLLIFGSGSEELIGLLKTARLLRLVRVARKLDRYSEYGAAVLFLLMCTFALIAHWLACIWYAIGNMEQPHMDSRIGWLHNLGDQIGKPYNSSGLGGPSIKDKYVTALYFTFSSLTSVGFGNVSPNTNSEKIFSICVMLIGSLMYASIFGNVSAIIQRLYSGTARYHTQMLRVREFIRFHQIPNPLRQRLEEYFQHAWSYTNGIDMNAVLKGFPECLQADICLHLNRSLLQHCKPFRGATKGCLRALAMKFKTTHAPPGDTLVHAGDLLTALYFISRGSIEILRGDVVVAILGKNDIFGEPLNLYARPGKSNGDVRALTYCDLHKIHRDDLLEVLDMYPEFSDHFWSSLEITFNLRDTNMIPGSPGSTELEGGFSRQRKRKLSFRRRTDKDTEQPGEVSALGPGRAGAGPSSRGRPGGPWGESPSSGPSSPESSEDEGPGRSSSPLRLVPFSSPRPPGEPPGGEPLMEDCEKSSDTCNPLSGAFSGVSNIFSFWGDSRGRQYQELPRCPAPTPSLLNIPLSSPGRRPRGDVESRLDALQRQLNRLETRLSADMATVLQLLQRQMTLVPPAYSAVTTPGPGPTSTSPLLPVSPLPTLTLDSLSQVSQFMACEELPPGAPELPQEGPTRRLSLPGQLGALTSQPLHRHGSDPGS
# What was measured:
# hERG channels [1] = biological target: T1, hERG channels (Homo sapiens, UniProt Q12809); experiment: Automated patch clamp, IKr CiPA protocol, CHO cells
# hERG channels [2] = biological target: T1, hERG channels; experiment: Automated patch clamp, IKr Pharm (Roche in-house) protocol, CHO cells
compound,measurement,setting,value
CN1CCCCC1CCN1c2ccccc2Sc2ccc([S+](C)[O-])cc21 (centres unmarked) [Mesoridazine],IC50,hERG channels [1],565 nM
same,IC50,hERG channels [2],503 nM
